Experimental data reported in paper PMC7125024 (ChemMedChem, 2020).

By UniProt entry, the sequences of proteins in these tests, tags left out.
UniProt P27338, whole entry: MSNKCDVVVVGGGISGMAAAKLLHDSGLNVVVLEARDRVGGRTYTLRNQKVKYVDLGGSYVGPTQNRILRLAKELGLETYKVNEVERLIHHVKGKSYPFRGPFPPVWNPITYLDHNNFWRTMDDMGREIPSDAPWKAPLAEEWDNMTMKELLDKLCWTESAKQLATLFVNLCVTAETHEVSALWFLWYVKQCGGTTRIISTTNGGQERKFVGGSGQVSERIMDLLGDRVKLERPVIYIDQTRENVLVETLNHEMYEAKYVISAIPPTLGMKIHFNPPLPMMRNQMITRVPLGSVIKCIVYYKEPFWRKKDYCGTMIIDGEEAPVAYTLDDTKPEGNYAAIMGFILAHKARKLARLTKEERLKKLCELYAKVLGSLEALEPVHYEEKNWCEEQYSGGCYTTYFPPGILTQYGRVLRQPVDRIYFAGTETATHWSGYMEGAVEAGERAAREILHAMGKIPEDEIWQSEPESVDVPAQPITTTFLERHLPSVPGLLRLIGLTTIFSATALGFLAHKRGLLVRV
UniProt P21397, whole entry: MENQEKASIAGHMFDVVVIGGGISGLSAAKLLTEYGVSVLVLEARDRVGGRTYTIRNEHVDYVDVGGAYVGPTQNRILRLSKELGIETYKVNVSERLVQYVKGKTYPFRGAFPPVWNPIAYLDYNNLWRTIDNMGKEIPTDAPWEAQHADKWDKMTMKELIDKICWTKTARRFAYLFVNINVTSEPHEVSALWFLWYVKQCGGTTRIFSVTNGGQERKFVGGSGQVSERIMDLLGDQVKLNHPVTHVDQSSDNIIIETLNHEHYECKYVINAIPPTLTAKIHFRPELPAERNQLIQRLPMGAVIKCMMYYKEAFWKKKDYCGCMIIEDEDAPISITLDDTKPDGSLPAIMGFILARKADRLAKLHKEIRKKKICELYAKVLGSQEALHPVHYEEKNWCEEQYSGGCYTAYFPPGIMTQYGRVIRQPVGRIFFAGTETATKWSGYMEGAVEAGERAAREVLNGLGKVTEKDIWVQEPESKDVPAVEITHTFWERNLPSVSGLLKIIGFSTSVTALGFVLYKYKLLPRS

Key:
[1] = biological target: human MAO B (Homo sapiens, UniProt P27338); experiment: Anti-MAO assay; format: biochemical; conditions: NI = no inhibition
[2] = biological target: human MAO A (Homo sapiens, UniProt P21397); conditions: added for comparison, ref [13b], [19]; cited from earlier work

| Compound | % inhibition at 100 μM MAO B [1] [%] | % inhibition at 100 μM MAO A [2] [%] |
| --- | --- | --- |
| N[C@@H]1C[C@H]1c1ccccc1 (racemic) [TCP, tranylcypromine, reference compound] | 85 | – |
| NC1CC1c1ccc(NC(=O)C(Cc2ccccc2)NC(=O)OCc2ccccc2)cc1 (centres unmarked) [2a] | – | 94 |
